Measurements published in article PMC6471342, “Synthesis of Thymidine Phosphorylase Inhibitor Based on Quinoxaline Derivatives and Their Molecular Docking Study” (Molecules, 2019).

Chains of the proteins cited; added tags and fusions are not shown. Lines headed by an entry give the natural chain unless they say otherwise; changes in a name come on top.
UniProt P07650: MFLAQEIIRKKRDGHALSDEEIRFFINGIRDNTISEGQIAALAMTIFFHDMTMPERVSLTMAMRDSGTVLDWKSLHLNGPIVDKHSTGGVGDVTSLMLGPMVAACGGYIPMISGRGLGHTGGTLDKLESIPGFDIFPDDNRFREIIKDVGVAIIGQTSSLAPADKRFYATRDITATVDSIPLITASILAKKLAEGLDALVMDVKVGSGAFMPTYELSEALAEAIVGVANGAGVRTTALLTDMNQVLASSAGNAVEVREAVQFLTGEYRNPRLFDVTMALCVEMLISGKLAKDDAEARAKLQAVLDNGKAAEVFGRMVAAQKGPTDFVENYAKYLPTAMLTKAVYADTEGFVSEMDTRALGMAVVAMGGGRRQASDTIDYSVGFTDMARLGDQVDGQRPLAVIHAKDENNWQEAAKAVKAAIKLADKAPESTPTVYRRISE

Biological target: T1, thymidine phosphorylase/PD-ECGF (E. coli) (Escherichia coli, UniProt P07650)
T1 construct: purchased
Test: Thymidine phosphorylase inhibition assay (absorbance at 290 nm)
Format: biochemical
Settings: Table 1; triplicate; read-out: IC50 (µM ± SEM)
Protocol: Since human TP is not easy to obtain, we used commercially available recombinant E. coli TP. The primary sequence of TP is frequently preserved throughout evolution as mammalian TP is reported to share 39% sequence resemblance with the TP of E. coli. The mammalian enzyme also shared up to 70% resemblance with the active site residues, and three-dimensional structure of E. coli TP enzyme. The thymidine phosphorylase/PD-ECGF (E. coli) activity was determined by measuring the absorbance at 290 nm spectrophotometrically. The method was described in [50, 51]. In brief, the total reaction mixture of 200 µL contained 145 µL of potassium phosphate buffer (pH 7.4), 30 µL of enzyme (human and E. coli) at concentration 0.05 and 0.002 U, respectively, were incubated with 5 µL of test materials for 10 min at 25 °C in a microplate reader. After incubation, a pre-read at 290 nm was taken to deduce the absorbance of substrate particles. The substrate (20 µL, 1.5 mM), dissolved in potassium phosphate buffer, was immediately added to the plate and continuously read after 10, 20, and 30 min in a microplate reader (SpectraMax, Molecular Devices, CA, USA). […]
Reactions for above mentioned biological activities were carried out in triplicate. […] The percent inhibition for above mentioned biological activities was calculated by following formula:Percent Inhibition = 100 − (ODtest compound/ODcontrol) × 100(1)

## O=c1[nH]c(=O)c2cc[nH]c2[nH]1 [7-Deazaxanthine, reference compound]
  IC50: 38.7 ± 4.42 µM
